Target: human endothelial lipase (EL) (Homo sapiens (Human), UniProt Q9Y5X9)
Test: Human endothelial lipase (EL) inhibitory activity using human HDL (NEFA release)
Settings: read-out: IC50 (50% inhibitory concentration), EL inhibitory activity; human HDL 2 mg/ml substrate, 4-hour reaction at 37° C., NEFA readout

The chains behind the UniProt entries cited, without tags or fusion partners. Residues count along the entry.
UniProt Q9Y5X9, 21-500 limits assumed: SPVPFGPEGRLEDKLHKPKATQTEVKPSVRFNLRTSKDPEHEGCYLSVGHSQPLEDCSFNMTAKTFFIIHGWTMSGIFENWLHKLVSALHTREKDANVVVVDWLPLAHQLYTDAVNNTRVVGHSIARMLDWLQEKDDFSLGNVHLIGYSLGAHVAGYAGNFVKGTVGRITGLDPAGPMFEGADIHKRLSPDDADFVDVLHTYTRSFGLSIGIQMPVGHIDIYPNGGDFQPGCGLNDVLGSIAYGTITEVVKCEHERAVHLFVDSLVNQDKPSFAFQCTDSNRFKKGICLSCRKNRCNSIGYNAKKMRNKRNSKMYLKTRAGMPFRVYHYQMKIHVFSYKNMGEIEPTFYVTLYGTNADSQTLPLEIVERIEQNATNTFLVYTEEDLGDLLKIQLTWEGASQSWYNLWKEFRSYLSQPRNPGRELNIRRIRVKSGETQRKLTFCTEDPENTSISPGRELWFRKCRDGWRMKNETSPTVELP

| IC50 [nM] | SMILES |
| --- | --- |
| 8 | COc1cc(-c2ccccc2)cc2sc(Cc3nnc(CC(=O)NC4(C#N)CC4)o3)nc12 |
| 13 | N#CC1(NC(=O)Cc2nnc(Cc3nc4ccc(-c5ccccc5)c(F)c4s3)o2)CC1 |
